The record followed here is US20160309764A1, “FOOD COMPOSITION COMPRISING FERROUS PICOLINATE” (NESTEC S.A., priority 2013, published 2016).

A short description of series [1]: Colour change of fortified pasteurized yoghurts on storage at 37° C. versus colour immediately after pasteurization (CIELAB). Type of series: physicochemical. As to conditions: stored at 37° C.
Series [2] can be described thus: Colour difference of iron fortified strawberry-banana yoghurt after flash pasteurization versus yoghurt with no iron salts (CIELAB). The class given is physicochemical. As to conditions: approx. 0.8 mg iron per 100 g, pasteurized at 105° C. for 2 minutes. Here is the method: Commercial yoghurt, Nestlé Jogolino™ Strawberry/Banana yoghurt containing 15% banana puree and 10% strawberry puree was iron fortified by the addition of different iron salts to 5 kg yoghurt as reported in the table below. The amounts were chosen to provide approximately 0.8 mg iron per 100 g yoghurt. […] Colour measurements were performed in 1×1 cm polystyrene cuvettes using an X-Rite ColorEye 7000A colorimeter. The colorimeter was set up with a D65 light source, 10 degree observer angle and with specular component included. The colour difference between the yoghurt with no iron salts and the iron fortified yoghurt was measured for each iron salt and expressed as ΔEab* using the CIELAB colour scale.

Take ferric pyrophosphate [Fe4(P2O7)3 × H2O]: in series [1] (day 7, versus colour immediately after pasteurization), the “ΔEab* day 7” value worked out at 1.09. The “ΔEab* day 30” value in series [1] (day 30, versus colour immediately after pasteurization) is reported as 3.61. In addition, in series [1] (day 60, versus colour immediately after pasteurization), the “ΔEab* day 60” value stood at 6.21. Further, the “ΔEab* day 120” value in series [1] (day 120, versus colour immediately after pasteurization) amounted to 10.23. Also, the “ΔEab*” value in series [2] was determined as 3.43.
